Bioassay records deposited in PubChem BioAssay by National Center for Advancing Translational Sciences (NCATS).
ALDH1A1 block: blocks purified human ALDH1A1 activity; Potency, µM (titrated, usually from 75.3 µM), for inactives: top-dose activity, negative = inhibition, actives largely listed as inhibitors; 7.3% of 220,000 active; AID 1030; Purified ALDH1A1, NADH fluorescence, propionaldehyde substrate; active = well fitted inhibition curve with a large enough effect, not every such curve was filed as active; inconclusive = small, poorly fitted or top-dose-only effect, or another doubt; inactive = no such curve, though single readings can be large or run the other way;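 also: potency is read from the fitted curve at half-maximal effect; plate controls were no enzyme wells and a reference inhibitor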
Sfp inh: inhibitors of Bacillus subtilis Sfp phosphopantetheinyl transferase; Q9F4F7; Biochemical Sfp PPTase activity, qHTS; Potency, µM, inactives show max response, negative = inhibition, actives largely listed as inhibitors; hit rate 3.5% among 310,000; AID 1490; active means well fitted inhibition curve with a large enough effect; inconclusive means small, poorly fitted or top-dose-only effect, or another doubt; inactive means no such curve, though single readings can be large or run the other way;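 further: the enzyme is Sfp with the accession as filed and its product quenches rhodamine fluorescence; potency means the concentration at half of the fitted maximal effect; 0% = enzyme reaction without inhibitor and -100% = no enzyme wells; top concentration of the series not given in the record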
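Fluorescence-quenching assay with 15 nM Sfp, 5 uM rhodamine-CoA and 12.5 uM BHQ-2-labelled ybbR peptide in pH 7.6 Hepes/MgCl2 buffer. Enzyme was pre-incubated with compound for 15 min at room temperature. Rate was taken from the 30-min fluorescence change (525/598 nm).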
LMNA splice mod: LMNA splicing modulation; HeLa LMNA splicing GFP/RFP minigene ratio, 48 h; Potency, µM (top dose mostly 46.1 µM), for inactives: top-dose ratio change, negative = inhibition, hits mostly inhibitors; AID 1487; 0.01% of 200,000 active; active = well fitted inhibition curve with a large enough effect in the signal ratio, with a control signal flat, not every such curve was filed as active; inconclusive = small, poorly fitted or top-dose-only effect, or effect the other way, or a change in a side signal; the % refers to the signal ratio; also: potency is read from the fitted curve at half-maximal effect; % is scaled to controls: 0 for no effect and ±100 for the full control effect
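S3 HeLa cells stably expressing lamin A-EGFP splicing minigene plus DsRed2, 600 cells/well, 48 h compound exposure at 37C. Laser-scanning cytometry; analysed as GFP (500-530 nm)/RFP (575-640 nm) total intensity ratio; 0.5% DMSO vehicle.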
miR-21 reporter: miR-21 reporter, rising signal | HeLa miR-21 FLuc reporter, luciferase, 48 h | Potency, µM (top dose mostly 38.3 µM), inactives show at the highest dose reporter change, positive = more light | 340,000 tested, under 10 active | AID 2288; active = well fitted rising curve with a large enough effect; inconclusive = small, poorly fitted or top-dose-only effect; inactive = no such curve, though single readings can be large or run the other way;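 note: % of control where 0% means no effect; miR-21 action dims this reporter so a rising signal means less miR-21 action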
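HeLa cells stably expressing CMV-driven firefly luciferase with a downstream miR-21 binding sequence, endogenously expressing miR-21, were treated with titrations (up to about 40uM final) for 48 hours at 37 degree Celsius. Luciferase luminescence was read after lysis.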
JMJD2E inh: inhibitors of human JMJD2E histone demethylase | B2RXH2 | JMJD2E catalytic domain, FDH-coupled NADH fluorescence (FDH is formaldehyde dehydrogenase) | Potency, µM (highest dose often 57.1 µM), for the others: at the top dose activity change, negative = inhibition, hits mostly inhibitors | 1.6% of 230,000 active; active = well fitted inhibition curve with a large enough effect, not every such curve was filed as active; inconclusive = small, poorly fitted or top-dose-only effect, or another doubt; inactive = no such curve, though single readings can be large or run the other way;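 also: potency is read from the fitted curve at half-maximal effect; 0% = wells with enzyme and -100% = buffer wells without enzyme; nearly all actives have a fitted effect of over 50% in size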
G9a inh: G9a (human) methyltransferase inhibition; Q96KQ7; G9a H3K9 monomethylation, AlphaScreen, 2 h; Potency, µM (highest dose often 102 µM), for the others: at the top dose activity, negative = inhibition, usual class: inhibitors; 8.8% of 350,000 active; also: potency is read from the fitted curve at half-maximal effect; % is scaled to controls: 0 for no effect and ±100 for the full control effect; nearly all actives have a fitted effect of over 75% in size
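G9a (20 nM) was preincubated 15 min with compound, then reacted 2 h at room temperature with 500 nM biotin-H3K9 peptide and 20 µM SAM. Monomethyl-H3K9 detected by AlphaScreen using anti-H3K9me1 antibody.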
* hit, by the source's call; u = inconclusive; x = no result given; [ ] = remark or other dose. A selection: hits, their analogues and other compounds. The true share with any hit is near 13%. Unless noted, calls follow the shape of the dose curve; as a rule, active = well fitted curve in the direction sought with a large enough effect; inconclusive = small, poorly fitted or top-dose-only effect, or another doubt; inactive = no such curve, though single readings can be large; an effect the other way counts as inactive or inconclusive.

item	G9a inh	Sfp inh	ALDH1A1 block	LMNA splice mod	JMJD2E inh	miR-21 reporter	SMILES
1	4%[59 µM]	-1%	2%	-7%	-3%	-56%	Cc1ccccc1-n1c(C)nnc1SCc1nc2ccccc2s1
2	-5%	10%	x	x	x	-2%	COc1cc(CN2CCC(n3nccc3NC(=O)C3CC3)CC2)cc(OC)c1
3	15%[59 µM]	x	x	x	x	3%	CCOc1ccc(NC(=O)Cn2c(=O)n(CCc3ccccc3)c(=O)c3c4c(sc32)CN(C(C)=O)CC4)cc1
4	50µM*	-10%	u	-5%[46 µM]	-1%	-5%	O=C(CSc1nnc(COc2ccccc2Cl)o1)NC(=O)NCc1ccco1
5	u	12%	u	-9%	0%	-6%	CC(C)(C)NC(=O)NC(=O)CSc1nnc(COc2ccccc2Cl)o1
6	13µM*	x	x	x	x	-2%	Cc1ccc(NC2(c3ccccc3)C(=O)c3ccccc3C2=O)cc1F
7	-38%[59 µM]	x	x	16%[46 µM]	x	-1%	O=C(O)c1cc(NC2(c3ccccc3)C(=O)c3ccccc3C2=O)ccc1Cl
8	108%[59 µM]	x	x	x	x	-15%	COc1ccc(-c2noc(COc3ccc(Br)cc3C)n2)cc1OC
9	14%[0.0925 µM]	0%	x	x	x	11%	COc1ccc(C)cc1NS(=O)(=O)c1ccc2c(c1)N(C)CCO2
10	16µM*	-93%	35µM*	x	u	u	COc1ccccc1C1=NNC(=Nc2cccc(S(=O)(=O)N(C)C)c2)SC1
11	8%[59 µM]	x	x	5%[46 µM]	x	-4%	Cc1ccc(C)c(NC(=O)CSc2nc(=O)n(CCN(C)C)c3c2CCC3)c1
12	40µM*	3%	x	x	x	-2%	COC(=O)c1ccccc1NC(=O)c1cc(-c2ccco2)on1
13	-6%[59 µM]	20%	14%	17%	u	-6%	COC(=O)c1ccccc1NC(=O)c1cc(-c2cccs2)on1
14	-4%	-4%	u	-1%	8%	-11%	O=C(NCc1ccc(Cl)cc1)c1cc(-c2ccco2)on1
15	u	9%	-9%	u	19%	-39%	Cc1ccc(-c2cc(C(=O)NCc3cccnc3)no2)cc1
16	x	4%	3.5µM*	3%	-1%	-14%	COc1ccc(CNC(=O)c2cc(-c3ccco3)on2)cc1
17	40µM*	u	u	-1%	u	-23%	O=C(NCc1cccnc1)c1cc(-c2ccco2)on1
18	-5%[59 µM]	x	x	x	x	12%	COc1ccc2c(c1)c(=O)c(S(=O)(=O)c1ccc(C)cc1)cn2Cc1ccccc1C
19	9%[59 µM]	x	x	-9%[46 µM]	x	-4%	COC(=O)c1ccc(-n2c(/C=C\c3cccc(Br)c3)nc3ccccc3c2=O)cc1
20	u	x	x	x	x	27%	CCOc1ccc(CNC(=O)c2c(C)nn(-c3ccc(F)cc3)c2-n2cccc2)cc1

Screen by screen, from the results shown:
Entries 7 to 13 in Sfp inh: x, x, 0%, -93%, x, 3%, 20%

Additional records:
item	G9a inh	Sfp inh	ALDH1A1 block	LMNA splice mod	JMJD2E inh	miR-21 reporter	SMILES
21	28µM*	22µM*	u	x	u	0%	COc1ccccc1CCNC(=O)CSc1ccc(-c2ccco2)nn1
22	-3%	6%	-8%	9%[46 µM]	0%	2%	COc1ccccc1-c1ccc(SCC(=O)NCCc2ccccc2)nn1
23	u	22µM*	u	-8%	9%	-7%	O=C(CSc1ccc(-c2ccco2)nn1)NCc1ccccc1
24	u	-29%	7.1µM*	-7%	12%	-9%	O=C(CSc1ccc(-c2ccco2)nn1)NCc1ccc(Cl)cc1
25	x	-21%	x	x	x	x	COc1ccc(C2=Nn3c(nnc3-c3cc(OC)ccc3OC)SC2)c(OC)c1
26	0%[12.7 µM]	-5%	x	x	x	0%	C=C1CCC[C@]2(C)C[C@H]3OC(=O)C(CNCCN(C)C)[C@H]3CC12 (stereo partly drawn)
27	x	56µM*	8.9µM*	x	-6%	x	C=C1CCC[C@]2(C)C[C@H]3OC(=O)[C@H](CNCCc4ccccc4OC)C3CC12 (stereo partly drawn)
28	27%[0.501 µM]	56µM*	x	x	x	2%	C=C1CCC[C@]2(C)C[C@H]3OC(=O)C(CNCCN(CC)CC)[C@H]3CC12 (stereo partly drawn)
29	x	6%	x	x	x	6%	COc1cccc(CC2(CO)CCCN(Cc3ccc(OC)c(C)c3OC)C2)c1 (stereo not drawn)
30	-9%[59 µM]	x	x	x	x	1%	Cc1ccc(C(=O)c2cn(Cc3c(F)cccc3Cl)c3nc(C)ccc3c2=O)cc1
31	6%[0.501 µM]	-13%	x	x	x	-3%	O=C1/C(=C\c2ccco2)SC(=S)N1C1CCCCC1
32	5µM*	45µM*	x	x	u	7%	CC1=C(C#N)C(=O)N(C2CCS(=O)(=O)C2)C(=O)/C1=C\c1ccco1 (stereo not drawn)
33	0%[59 µM]	x	x	u	x	2%	O=C(COCc1cc(-c2ccc3c(c2)OCO3)on1)NCc1ccc(F)cc1
34	16µM*	10µM*	u	3%	u	-26%	c1ccc(-c2nc3nc4ccccc4nc3n2Cc2ccco2)cc1
35	-44%	18µM*	u	-3%	u	-39%	Fc1ccc(-c2nc3nc4ccccc4nc3n2Cc2ccco2)cc1
36	u	-21%	10µM*	10%	-6%	-1%	S=c1nc(-c2ccccc2)n(Cc2ccco2)c2c1CCCC2
37	x	-3%	x	x	-22%	-2%	S=c1nc(-c2ccccc2)n(Cc2cccnc2)c2c1CCCC2
38	-3%[0.501 µM]	x	x	x	x	x	O=c1oc2ccc(C#CC3(O)CCCCC3)cc2cc1-n1cc(C2(O)CCCCC2)nn1
39	50µM*	-28%	22%	13%	5%	2%	Cc1nnc(NC(=O)CN2C(=O)c3ccccc3S2(=O)=O)s1
40	-8%[59 µM]	12%	8%	3%	1%	-7%	CCc1nnc(NC(=O)CN2C(=O)c3ccccc3S2(=O)=O)s1

Quoted from above, compounds 21 to 24
item	G9a inh	Sfp inh	ALDH1A1 block	LMNA splice mod	JMJD2E inh	miR-21 reporter	SMILES
21	28µM*	22µM*	u	x	u	0%	COc1ccccc1CCNC(=O)CSc1ccc(-c2ccco2)nn1
22	-3%	6%	-8%	9%[46 µM]	0%	2%	COc1ccccc1-c1ccc(SCC(=O)NCCc2ccccc2)nn1
23	u	22µM*	u	-8%	9%	-7%	O=C(CSc1ccc(-c2ccco2)nn1)NCc1ccccc1
24	u	-29%	7.1µM*	-7%	12%	-9%	O=C(CSc1ccc(-c2ccco2)nn1)NCc1ccc(Cl)cc1

Next part:
item	G9a inh	Sfp inh	ALDH1A1 block	LMNA splice mod	JMJD2E inh	miR-21 reporter	SMILES
41	25µM*	10%	x	x	x	0%	Cc1cc(NC(=O)CN2C(=O)c3ccccc3S2(=O)=O)no1
42	14%[59 µM]	-9%	8%	x	x	x	NC(=O)[C@@H]1CCCN1
43	48%[12.7 µM]	x	-5%	u	0%	x	CC(C)(C)NCC(O)COc1nsnc1N1CCOCC1 (stereo not drawn)
44	11µM*	-25%	u	u	u	-4%	O=C(c1cccs1)N1CCN(Cc2cccc([N+](=O)[O-])c2)CC1
45	43%[59 µM]	-28%	u	-5%	-1%	-11%	O=C(c1ccc([N+](=O)[O-])cc1)N1CCN(C(=O)c2cccs2)CC1
46	28µM*	56µM*	x	x	x	26%	COc1ccc(CN2CCN(C(=O)c3cccc4ccccc34)CC2)cc1Br
47	35µM*	u	u	-11%	-22%	2%	COc1ccc(CN2CCN(C(=O)c3cccs3)CC2)cc1Br
48	-32%[2.33 µM]	8%	22µM*	u	-1%	0%	COc1cccc(C(=O)N2CCN(C(=O)c3cccs3)CC2)c1OC
49	-5%	-26%	1%	4%[46 µM]	u	-3%	CCN(CC)P(=O)(Nc1ccccc1Br)c1ccc(N(C)C)cc1NC(=O)c1ccco1 (stereo not drawn)
50	9%[59 µM]	x	x	x	x	-9%	CCOc1ccc(-c2nonc2NC(=O)c2oc3c(C)c(C)ccc3c2C)cc1OCC
51	22µM*	u	x	x	x	6%	CCOc1cc(CN2CCN(C(=O)c3cccc4ccccc34)CC2)ccc1OC
